In PubChem BioAssay AID2596 (National Center for Advancing Translational Sciences (NCATS), 2010):
The list shows a part of the results, in another mix than the full data. Records with an inconclusive call do not appear. Activity calls are given as the source filed them. Calls come from the whole dose curve; as a rule, active = well fitted inhibition curve with a large enough effect; inconclusive = small, poorly fitted or top-dose-only effect, or effect the other way; inactive = flat fitted curve, though single readings scatter.

Protein sequences, listed by entry. Tags and fused reporters are not part of them. Lines headed by an entry give the natural chain unless they say otherwise; changes in a name come on top.
UniProt P04062: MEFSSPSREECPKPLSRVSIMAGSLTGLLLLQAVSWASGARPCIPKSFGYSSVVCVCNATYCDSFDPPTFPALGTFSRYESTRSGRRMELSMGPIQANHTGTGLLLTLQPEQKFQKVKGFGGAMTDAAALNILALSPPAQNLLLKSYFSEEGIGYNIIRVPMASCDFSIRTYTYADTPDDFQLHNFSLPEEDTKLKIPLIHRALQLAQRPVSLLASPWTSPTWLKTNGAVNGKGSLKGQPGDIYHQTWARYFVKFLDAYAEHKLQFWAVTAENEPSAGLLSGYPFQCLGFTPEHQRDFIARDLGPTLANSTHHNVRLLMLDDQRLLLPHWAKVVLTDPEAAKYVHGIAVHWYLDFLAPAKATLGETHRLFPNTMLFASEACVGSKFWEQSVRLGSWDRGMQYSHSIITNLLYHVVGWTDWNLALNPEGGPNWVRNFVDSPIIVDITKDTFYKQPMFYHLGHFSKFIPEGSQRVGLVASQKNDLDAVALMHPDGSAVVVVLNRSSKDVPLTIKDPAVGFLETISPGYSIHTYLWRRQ

The compounds below were run against Lysosomal acid glucosylceramidase (Homo sapiens) (UniProt P04062) (assay: qHTS Assay for Inhibitors and Activators of N370S glucocerebrosidase as a Potential Chaperone Treatment of Gaucher Disease: Purified N370S Glucocerebrosidase Cleavage of Glucosylceramide). Settings: purified N370S GCase.
Source text: NIH Chemical Genomics Center [NCGC]
NIH Molecular Libraries Probe Production Centers Network [MLPCN]
Assay Submitter (PI): Wei Zheng
Glucocerebrosidase (GC) catalyzes the hydrolysis of beta-glucocerebroside to glucose and ceramide in lysosomes. Mutations in the glucocerebrosidase gene result in Gaucher disease, an autosomal recessive lysosomal storage disorder. Many of the mutations encountered in patients with Gaucher disease are missense alterations that may cause misfolding, decreased stability and/or mistrafficking of this lysosomal protein. […] These inhibitors include iminosugar analogs and three non-iminosugar inhibitors identified from a previous HTS of 62,000 compounds with the wild type recombinant enzyme. However, the enhancement of enzyme activity by the chaperone action of an enzyme inhibitor must be balanced against the direct inhibition of the enzyme. An enzyme activator could also function as a chaperone by binding to the enzyme and helping to correct its misfolding and mistrafficking. While activators for GC have not yet been identified, they may have better therapeutic potential than inhibitors. Therefore the discovery and development of chemical activators may provide a new strategy for the chaperone therapy.
We have optimized a new assay using N370S mutant GC derived from the spleen of a Gaucher patient. […]
This is an enzyme assay using glucosylceramide from soy (Avanti Polar Lipids Catalog #: 131304P) as the substrate and recombinant human glucocerebrosidase as the enzyme preparation. Upon hydrolysis of the substrate, the glucose product can be detected using the Amplex Red Glucose Oxidase Assay Kit (Invitrogen catalog #: A22189). The product of this reaction can be read with a fluorescence plate reader with an excitation at 573 nm and an emission at 610 nm. […] The AC50 values were determined from concentration-response data modeled with the standard Hill equation. […]
(7) Detect the assay plate in a ViewLux plate reader (PerkinElmer) with Ex=573 nm and Em=610nm. […]

Potency, active:
Cc1cc(N2CCOCC2)nc2ccc(NC(=O)C3CCCCC3)cc12 14.1 µM, COc1ccc(Cl)cc1Nc1nc(NCCO)nc(N2CCCC2)n1 31.6 µM, CCc1nnc(NC(=O)c2ccc(NS(=O)(=O)c3ccccc3)cc2)s1 7.94 µM
